# Results: publication PMC7196279 (Biomedicine & pharmacotherapy = Biomedecine & …, 2020)
# Chains of the proteins cited; added tags and fusions are not shown. Lines headed by an entry give the natural chain unless they say otherwise; changes in a name come on top.
# UniProt P41145: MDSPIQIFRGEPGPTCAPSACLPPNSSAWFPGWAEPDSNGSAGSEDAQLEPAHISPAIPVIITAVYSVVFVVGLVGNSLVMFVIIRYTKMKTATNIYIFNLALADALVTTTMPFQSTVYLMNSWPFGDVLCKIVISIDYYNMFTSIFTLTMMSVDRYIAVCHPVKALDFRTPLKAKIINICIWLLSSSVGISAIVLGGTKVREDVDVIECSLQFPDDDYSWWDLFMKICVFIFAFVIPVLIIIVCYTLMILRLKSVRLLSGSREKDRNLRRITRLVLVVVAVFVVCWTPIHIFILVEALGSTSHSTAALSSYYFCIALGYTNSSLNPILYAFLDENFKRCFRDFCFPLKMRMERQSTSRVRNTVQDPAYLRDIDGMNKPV
# Target: Human Kappa-opioid (κO) receptor (Homo sapiens, UniProt P41145)
# Assay: Membrane potential assay in κOR-CHO cells
# Type: cell-based
# Details: control κO receptor cell lines
substance,measurement,value
Dynorphin A (1–13) amide [DynorphinA1-13-NH2],hyperpolarizing response,robust hyperpolarizing response
